This is an account of results in US9975882B2, “Heteroaromatic compounds as BTK inhibitors” (Boehringer Ingelheim International GmbH, priority 2015, dated 2018).

By UniProt entry, the sequences of proteins in these tests, tags left out. Where a name states a change or a piece, a line headed by the entry shows the natural chain unless it says otherwise.
UniProt Q06187: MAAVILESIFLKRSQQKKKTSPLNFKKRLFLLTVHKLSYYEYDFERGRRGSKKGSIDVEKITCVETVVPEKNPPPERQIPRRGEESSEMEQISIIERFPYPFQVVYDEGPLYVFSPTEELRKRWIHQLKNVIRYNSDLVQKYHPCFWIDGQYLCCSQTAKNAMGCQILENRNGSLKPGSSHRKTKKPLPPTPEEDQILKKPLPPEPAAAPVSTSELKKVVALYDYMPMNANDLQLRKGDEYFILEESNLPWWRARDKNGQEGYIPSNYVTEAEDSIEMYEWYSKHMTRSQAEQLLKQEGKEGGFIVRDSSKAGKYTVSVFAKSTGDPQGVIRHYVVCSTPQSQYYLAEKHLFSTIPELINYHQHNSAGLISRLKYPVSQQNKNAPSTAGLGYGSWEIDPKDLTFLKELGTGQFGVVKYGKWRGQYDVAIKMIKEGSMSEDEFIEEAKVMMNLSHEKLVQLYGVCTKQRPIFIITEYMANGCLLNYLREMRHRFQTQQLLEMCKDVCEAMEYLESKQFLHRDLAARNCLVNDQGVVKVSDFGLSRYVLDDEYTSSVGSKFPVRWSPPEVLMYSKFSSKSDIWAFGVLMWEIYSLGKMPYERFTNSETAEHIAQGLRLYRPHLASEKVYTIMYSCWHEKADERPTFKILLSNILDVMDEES

This test deals with human recombinant BTK (full length, His-tagged) (Homo sapiens (Human), UniProt Q06187). Put plainly: BTK Z'-LYTE assay.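 Further: FRET readout of kinase phosphorylating a coumarin and fluorescein labelled synthetic peptide, detected via protease sensitivity of unphosphorylated versus phosphorylated substrate, incubated at 22 °C in 384-well plates.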 The class given is biochemical. The settings on record: 25 μM ATP.

As to `C=CC(=O)Nc1cccc(Nc2nc(Nc3ccc(OCCOC)cc3)ncc2F)c1` [Compound C, N-(3-(5-fluoro-2-(4-(2-methoxyethoxy)phenylamino)pyrimidin-4-ylamino)phenyl)acrylamide], the IC50 (commonly the concentration needed to halve the response being measured) was determined as 6.1 nM.
